This passage reports Potency results from PubChem BioAssay AID2147 (National Center for Advancing Translational Sciences (NCATS), 2009).

Sequences of proteins named here, by UniProt entry; tags and fusion partners are left off. A change or cut given only in a name is not applied to a line headed by its entry.
UniProt B2RXH2: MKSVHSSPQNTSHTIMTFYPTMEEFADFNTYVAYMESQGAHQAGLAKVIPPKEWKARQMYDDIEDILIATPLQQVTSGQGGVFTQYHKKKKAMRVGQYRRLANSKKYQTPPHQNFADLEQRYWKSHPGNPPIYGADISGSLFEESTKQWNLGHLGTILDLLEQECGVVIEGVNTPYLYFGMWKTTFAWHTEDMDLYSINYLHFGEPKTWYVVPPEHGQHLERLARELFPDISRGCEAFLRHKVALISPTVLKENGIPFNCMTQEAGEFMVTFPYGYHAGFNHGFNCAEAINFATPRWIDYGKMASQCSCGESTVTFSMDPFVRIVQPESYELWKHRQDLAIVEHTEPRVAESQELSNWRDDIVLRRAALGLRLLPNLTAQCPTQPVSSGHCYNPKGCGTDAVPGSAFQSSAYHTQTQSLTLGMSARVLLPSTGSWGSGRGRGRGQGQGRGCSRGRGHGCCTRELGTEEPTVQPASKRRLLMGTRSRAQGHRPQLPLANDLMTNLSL

Only a part is listed here, and it is no random draw. Records with an inconclusive call do not appear. The source made the active and inactive calls. Calls follow the shape of the dose curve; as a rule, active = well fitted inhibition curve with a large enough effect (not every such curve was filed as active); inconclusive = small, poorly fitted or top-dose-only effect, or another doubt; inactive = no such curve, though single readings can be large or run the other way.
Also: nearly all actives have a fitted effect of over 50% in size.
Potency is read from the fitted curve at half-maximal effect.

In the assay the target is Lysine-specific demethylase 4E (Homo sapiens) (UniProt B2RXH2). Briefly: qHTS Assay for Inhibitors of Human Jumonji Domain Containing 2E (JMJD2E). The conditions noted are these: JMJD2E catalytic domain, FDH-coupled NADH fluorescence (FDH is formaldehyde dehydrogenase). (In general: qHTS replaces the single test concentration by a dilution series.)
In the case of `CC[n+]1c(/C=C/N(C)c2ccccc2)oc2ccccc21`, the Potency was active: 10 µM.
